Test results reported in PubChem BioAssay AID861 (The Scripps Research Institute Molecular Screening Center, 2007).
The entries are a selection whose mix differs from that of the whole data set. Activity calls are given as the source filed them. Cut-off read from the data, not from the text of the source: active = inhibition above about 25%; inactive = the rest.

Sequences of proteins named here, by UniProt entry; tags and fusion partners are left off.
UniProt O00206, whole entry: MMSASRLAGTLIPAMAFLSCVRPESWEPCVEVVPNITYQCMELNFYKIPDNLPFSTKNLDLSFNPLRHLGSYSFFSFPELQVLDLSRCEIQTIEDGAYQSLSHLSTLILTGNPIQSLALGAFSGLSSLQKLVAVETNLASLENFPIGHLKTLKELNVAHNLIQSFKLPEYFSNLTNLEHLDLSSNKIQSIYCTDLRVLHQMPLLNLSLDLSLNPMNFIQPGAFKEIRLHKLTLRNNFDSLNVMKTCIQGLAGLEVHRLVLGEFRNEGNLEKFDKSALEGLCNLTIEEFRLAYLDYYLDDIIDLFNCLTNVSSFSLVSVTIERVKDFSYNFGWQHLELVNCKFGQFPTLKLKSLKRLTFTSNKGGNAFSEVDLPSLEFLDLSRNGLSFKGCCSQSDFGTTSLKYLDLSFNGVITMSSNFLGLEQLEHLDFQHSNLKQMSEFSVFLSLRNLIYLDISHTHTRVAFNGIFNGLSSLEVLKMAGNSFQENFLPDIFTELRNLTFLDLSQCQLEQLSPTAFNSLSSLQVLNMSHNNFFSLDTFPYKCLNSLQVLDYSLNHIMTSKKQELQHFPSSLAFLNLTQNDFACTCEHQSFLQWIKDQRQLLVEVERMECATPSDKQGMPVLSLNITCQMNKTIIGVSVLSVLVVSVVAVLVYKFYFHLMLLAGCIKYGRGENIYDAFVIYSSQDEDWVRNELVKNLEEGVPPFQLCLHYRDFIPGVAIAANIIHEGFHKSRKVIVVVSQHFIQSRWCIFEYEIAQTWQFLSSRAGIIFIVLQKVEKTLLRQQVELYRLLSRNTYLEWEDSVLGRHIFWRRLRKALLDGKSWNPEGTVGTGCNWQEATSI

Molecular target: Toll-like receptor 4 (Homo sapiens) + Myeloid differentiation primary response protein MyD88 (Homo sapiens) (UniProt O00206+Q99836)
Assay: inhibitors of TLR4-MyD88 association in cells, primary screen, cell-based, HeLa CL3-4, BLA complementation, FRET ratio (AID 861);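 note: 0% = vehicle and 100% = reference inhibitor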
Details: HeLa CL3-4 TLR4/MyD88 BLA complementation, at 8.4 µM, hits give high values

Structure (SMILES)	inhibition
CCOc1ncccc1C(=O)NCC1(N2CCOCC2)CCCCC1	inactive: 0.51%
CC(C)(C)OC(=O)N1CCC(Nc2ccccc2)CC1	inactive: -17.1%
COc1cc(OC)cc(C(=O)NCC2(N3CCOCC3)CCCCC2)c1	inactive: -2.18%
CCC(CO)(C(=O)OC1CN2CCC1CC2)c1ccccc1 (stereo not given)	inactive: 2.45%
CCN1CCC(Nc2cccc(F)c2)CC1	inactive: -7.4%
CN(C)c1ccc(C(=O)NCC2(N3CCCCC3)CCCCC2)cc1	inactive: -8.56%
N#Cc1ccc(C(=O)NCC2(N3CCCCC3)CCCCC2)cc1	inactive: 1.45%
c1ccc(CN2CCC(Nc3ccccc3)CC2)cc1	inactive: 5.21%
COc1ccc(C(=O)NCC2(N3CCOCC3)CCCCC2)cc1OC	inactive: 11.2%
N/C(=N\O)c1c(N)no[n+]1[O-]	inactive: 4.38%
O=C(OC1CN2CCC1CC2)C1c2ccccc2C=Cc2ccccc21 (stereo not given)	inactive: 3.4%
CC(C)c1ccc(NC2CCN(C(=O)OC(C)(C)C)CC2)cc1	inactive: 3.02%
CN(C)c1cccc(C(=O)NCC2(N3CCCCC3)CCCCC2)c1	inactive: 4.21%
COc1ccc(CN(CCCl)CCCl)cc1Cl	inactive: 0.55%
CN1CCC(Nc2cccc(F)c2)CC1	inactive: 6.33%
N#CC1(Nc2ccccc2)CCN(CCc2ccccc2)CC1	inactive: 2.98%
O=C(NCC1(N2CCCCC2)CCCCC1)c1cccc([N+](=O)[O-])c1	inactive: -20.9%
O=C(NCC1(N2CCOCC2)CCCCC1)c1cc(=O)[nH]c2ccccc12	inactive: -10.5%
COc1ccc(NC2CCN(C(=O)OC(C)(C)C)CC2)cc1	inactive: 2.52%
CN1CCN(CCOC(=O)C(O)(c2ccccc2)c2ccccc2)CC1	inactive: 2.12%
COc1ccc(NC2CCN(CCc3ccccc3)CC2)c(OC)c1	inactive: -2.1%
COc1ccc(C(=O)NCC2(N3CCCCC3)CCCCC2)c(OC)c1OC	inactive: -3.71%
O=C(NCC1(N2CCOCC2)CCCCC1)c1cc2ccccc2o1	inactive: 1.74%
O=C(OC1CN2CCC1CC2)C1c2ccccc2Oc2ccccc21 (stereo not given)	inactive: 10.5%
CCOC(=O)N1CCC(Nc2ccc(OC)cc2)CC1	inactive: -4.75%
